A word on the IC50: it is the concentration needed to halve the response being measured.

The chains behind the UniProt entries cited, without tags or fusion partners.
UniProt P10635, whole entry: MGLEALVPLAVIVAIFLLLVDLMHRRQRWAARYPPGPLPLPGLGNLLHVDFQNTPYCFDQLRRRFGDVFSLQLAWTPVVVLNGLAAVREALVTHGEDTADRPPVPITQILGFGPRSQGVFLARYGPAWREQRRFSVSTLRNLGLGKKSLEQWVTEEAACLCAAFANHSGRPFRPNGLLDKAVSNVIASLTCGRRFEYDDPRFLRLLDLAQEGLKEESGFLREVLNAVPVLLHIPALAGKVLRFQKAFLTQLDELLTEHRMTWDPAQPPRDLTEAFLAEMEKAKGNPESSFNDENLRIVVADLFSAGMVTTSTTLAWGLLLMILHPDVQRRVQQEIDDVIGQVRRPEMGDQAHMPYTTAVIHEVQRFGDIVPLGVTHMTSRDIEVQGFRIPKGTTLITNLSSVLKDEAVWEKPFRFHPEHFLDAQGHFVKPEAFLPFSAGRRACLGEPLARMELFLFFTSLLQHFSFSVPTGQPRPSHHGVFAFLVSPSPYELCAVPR

The target of the data set is CYP2D6 (Homo sapiens, UniProt P10635). Put plainly: Inhibitory activity on CYP2D6 (human recombinant CYPs). Conditions: recombinant enzyme.

Take `Cn1c(N2CCOC(c3ccc(-n4cccn4)cc3)C2)nc(-c2ccncn2)cc1=O` (stereo not shown) [Compound 5, 1-Methyl-2-[2-(4-pyrazol-1-yl-phenyl)-morpholin-4-yl]-1H-[4,4′]bipyrimidinyl-6-one]: the IC50 was determined as 1.9 µM.

The values above are taken from patent publication US8288383B2, “3-methyl-2- ( (2S) -2- (4- (3-methyl-L, 2, 4-oxadiazol-5-YL) phenyl) morpholino) -6- (pyrim-idin-4-yl) pyrimidin-4 (3H) -one as tau protein kinase inhibitor” (Sanofi, priority 2007, dated 2012).
